The values below come from patent US20250346630A1, “Engineering Peptides Using Peptide Epitope Linker Evolution” (AGENCY FOR SCIENCE, TECHNOLOGY AND RESEARCH, priority 2022, published 2025).

Chains of the proteins cited; added tags and fusions are not shown.
UniProt P60842, whole entry, species assumed: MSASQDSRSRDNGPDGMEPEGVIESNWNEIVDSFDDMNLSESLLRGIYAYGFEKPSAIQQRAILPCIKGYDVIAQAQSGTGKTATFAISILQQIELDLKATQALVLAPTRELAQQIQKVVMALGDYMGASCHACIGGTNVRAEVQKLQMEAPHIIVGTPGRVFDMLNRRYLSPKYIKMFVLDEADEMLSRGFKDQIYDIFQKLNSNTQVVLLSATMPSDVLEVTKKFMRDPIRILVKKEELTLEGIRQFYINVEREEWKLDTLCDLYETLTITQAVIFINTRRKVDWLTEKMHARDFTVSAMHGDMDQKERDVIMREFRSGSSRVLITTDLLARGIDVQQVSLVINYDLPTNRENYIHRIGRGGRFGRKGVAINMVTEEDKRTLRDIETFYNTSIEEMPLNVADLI
UniProt P06730, whole entry: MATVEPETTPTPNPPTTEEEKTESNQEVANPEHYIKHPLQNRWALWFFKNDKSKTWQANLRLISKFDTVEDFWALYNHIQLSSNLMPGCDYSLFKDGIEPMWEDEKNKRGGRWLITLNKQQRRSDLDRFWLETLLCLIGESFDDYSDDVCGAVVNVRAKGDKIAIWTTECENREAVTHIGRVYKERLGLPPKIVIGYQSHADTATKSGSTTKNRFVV
UniProt P12004, whole entry, looked up: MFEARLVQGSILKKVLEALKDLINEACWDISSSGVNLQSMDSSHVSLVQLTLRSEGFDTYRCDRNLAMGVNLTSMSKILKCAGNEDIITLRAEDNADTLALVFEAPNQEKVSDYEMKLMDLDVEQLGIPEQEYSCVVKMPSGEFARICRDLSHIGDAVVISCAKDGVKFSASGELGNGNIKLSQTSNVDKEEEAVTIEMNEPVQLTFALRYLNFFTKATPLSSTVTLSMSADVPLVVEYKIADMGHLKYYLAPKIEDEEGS

Some results are limits rather than exact numbers.

Experiment [1] deals with T1, eIF4A (Homo sapiens, UniProt P60842).
T1 construct: GST (N); made in house; host or cells: E. coli BL21 DE3
Nature of the experiment: eIF4A Surface Plasmon Resonance (SPR) assay. It is filed as binding.

The target in experiment [2] is T1, eIF4A. The experiment is described as follows: Isothermal titration calorimetry against eIF4A. It counts as binding. (ITC needs no label: the signal is the heat of the interaction.)
The next experiment concerns the target T2, eIF4E cap-binding site (Homo sapiens, UniProt P06730).
T2 construct: pET11d expression plasmid containing the full-length eIF4E clone; made in house; host or cells: E. coli Rosetta pLysS
Nature of the experiment: m^7GTP^FAM competitive fluorescence anisotropy assay. Particulars: for effect of alanine mutation of EE-02 on binding to eIF4E: m^7GTP^FAM competition, relative to EE-02. In general terms: Polarisation of emitted light reports the rotation of a fluorescent probe.

For the next experiment, the target named is T3, eIF4E (Homo sapiens, UniProt P06730).
T3 construct: pET11d expression plasmid containing the full-length eIF4E clone; made in house; host or cells: E. coli Rosetta pLysS
The experiment is described as follows: Isothermal titration calorimetry against eIF4E. It is filed as binding. To be noted: 293 K.

For a further experiment, the target named is T4, PCNA (Homo sapiens, UniProt P12004).
T4 construct: endogenous in cells; host or cells: HEK293
Nature of the experiment: Kd (nM).

With “GCLWVLSRTPWCMLKLGP (disulphide bond) [4AM20, forms a disulphide bond]”, the equilibrium dissociation constant (Kd) with eIF4A [1] (PBST running buffer without DTT, read-out: Dissociation Constant (Kd) PBST Running Buffer) is 17.5 nM; with eIF4A [1] (read-out: Dissociation Constant (Kd) PBST with 1 mM DTT, PBST with 1 mM DTT) it was 838 nM; in the experiment with eIF4A [2] (without TCEP) it was roughly 56 nM. In addition, the “Kd by Isothermal Titration calorimetry” value with eIF4A [2] (in the presence of TCEP) was “negligible”.
On to MHPSAICEMGFFQDC [VH-DiF^CAP-05], for which the Kd with eIF4E cap-binding site (read-out: Competitive Anisotropy (m^7GTP^FAM, kd), Table 3, 293 K, triplicate) was greater than 20000 nM. Further, in the experiment with eIF4E, the “ITC N, stoichiometry of the interaction (number of binding sites)” value is recorded as 0.99; the “ITC ΔH (KJ/Mol), enthalpy of binding” value is -7.5 kJ/mol; the “ITC ΔS (J/mol-K), entropy of binding” value worked out at 83.4 J/mol-K. Also, the dissociation constant Kd in the experiment with eIF4E (direct binding titration, read-out: ITC Kd) was 2150 nM.
As to `CSCC[C@@H]1NC(=O)[C@H](CCC(=O)O)NC(=O)[C@@H](NC(=O)[C@H](C)N)CSSC[C@@H](C(=O)NCC(N)=O)NC(=O)[C@H](CC(=O)O)NC(=O)[C@H](C)NC(=O)[C@H](Cc2ccccc2)NC(=O)[C@H](Cc2ccccc2)NC(=O)CNC1=O` [EE-02^98A], on eIF4E cap-binding site, the “effect of alanine mutation of EE-02 on binding to eIF4E” value is “no effect on binding”.
Consider SQSERPVYPMFHLR [VH-D1], for which the Kd with PCNA was 142 ± 12.8 nM.
As for “SRSSQSERPVYPMFHLR (SRSERPVYPMFHLR) [SEQ ID NO: 22 | D2]”, the dissociation constant (Kd) with PCNA stood at 165 ± 15.3 nM.
On the same count and under the same terms, for SHTRHPVYPMFHPR [VH-31] the value was 446 ± 52.2 nM; for SYSRVPLYPMFVNR [VH-18], 927 ± 48.9 nM.
On to `CSCC[C@@H]1NC(=O)[C@H](CCC(=O)O)NC(=O)[C@@H](NC(=O)[C@H](C)N)CSSC[C@@H](C(=O)NCC(N)=O)NC(=O)[C@H](C)NC(=O)[C@H](CCC(N)=O)NC(=O)[C@H](Cc2ccccc2)NC(=O)[C@H](Cc2ccccc2)NC(=O)CNC1=O` [EE-02^D9A], for which the “effect of alanine mutation of EE-02 on binding to eIF4E” value on eIF4E cap-binding site is reported as “small attenuation of the Kd”.

A word on the Kd: it is the free concentration of one partner at which half of the binding sites on the other are occupied at equilibrium, for simple one-to-one binding.
